# How the values were obtained:
# By UniProt entry, the sequences of proteins in these tests, tags left out. Where a name states a change or a piece, a line headed by the entry shows the natural chain unless it says otherwise.
# UniProt Q9Y5N1: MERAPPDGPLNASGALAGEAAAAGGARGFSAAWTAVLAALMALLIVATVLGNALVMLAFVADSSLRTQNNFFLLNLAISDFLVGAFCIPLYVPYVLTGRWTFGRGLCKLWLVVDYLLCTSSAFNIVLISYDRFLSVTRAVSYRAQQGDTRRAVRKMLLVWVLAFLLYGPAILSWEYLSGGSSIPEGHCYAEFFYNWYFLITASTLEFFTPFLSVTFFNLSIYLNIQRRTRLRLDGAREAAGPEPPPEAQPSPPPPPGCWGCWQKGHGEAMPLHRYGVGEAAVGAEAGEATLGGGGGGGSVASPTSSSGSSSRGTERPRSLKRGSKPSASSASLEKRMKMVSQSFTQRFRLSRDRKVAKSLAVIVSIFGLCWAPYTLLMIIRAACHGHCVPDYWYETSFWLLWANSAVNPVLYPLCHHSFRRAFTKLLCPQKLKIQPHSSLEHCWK
# UniProt P31645, whole entry: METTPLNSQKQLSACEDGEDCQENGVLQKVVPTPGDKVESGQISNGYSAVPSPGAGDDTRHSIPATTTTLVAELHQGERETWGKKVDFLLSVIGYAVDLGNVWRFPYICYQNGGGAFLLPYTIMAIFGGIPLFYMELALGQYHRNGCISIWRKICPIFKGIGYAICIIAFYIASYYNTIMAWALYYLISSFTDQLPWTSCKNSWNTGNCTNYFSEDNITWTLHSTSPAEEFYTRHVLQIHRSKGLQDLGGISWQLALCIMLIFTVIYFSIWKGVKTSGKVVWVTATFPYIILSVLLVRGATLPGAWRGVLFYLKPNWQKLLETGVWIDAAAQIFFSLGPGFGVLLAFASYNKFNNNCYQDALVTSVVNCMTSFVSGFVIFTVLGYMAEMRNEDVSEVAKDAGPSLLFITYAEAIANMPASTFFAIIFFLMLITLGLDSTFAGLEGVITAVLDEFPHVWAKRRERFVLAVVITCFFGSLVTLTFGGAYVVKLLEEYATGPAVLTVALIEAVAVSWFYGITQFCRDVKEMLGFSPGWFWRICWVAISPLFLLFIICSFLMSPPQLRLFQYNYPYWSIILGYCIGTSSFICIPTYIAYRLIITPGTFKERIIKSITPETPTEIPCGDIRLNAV
# UniProt P31652, whole entry: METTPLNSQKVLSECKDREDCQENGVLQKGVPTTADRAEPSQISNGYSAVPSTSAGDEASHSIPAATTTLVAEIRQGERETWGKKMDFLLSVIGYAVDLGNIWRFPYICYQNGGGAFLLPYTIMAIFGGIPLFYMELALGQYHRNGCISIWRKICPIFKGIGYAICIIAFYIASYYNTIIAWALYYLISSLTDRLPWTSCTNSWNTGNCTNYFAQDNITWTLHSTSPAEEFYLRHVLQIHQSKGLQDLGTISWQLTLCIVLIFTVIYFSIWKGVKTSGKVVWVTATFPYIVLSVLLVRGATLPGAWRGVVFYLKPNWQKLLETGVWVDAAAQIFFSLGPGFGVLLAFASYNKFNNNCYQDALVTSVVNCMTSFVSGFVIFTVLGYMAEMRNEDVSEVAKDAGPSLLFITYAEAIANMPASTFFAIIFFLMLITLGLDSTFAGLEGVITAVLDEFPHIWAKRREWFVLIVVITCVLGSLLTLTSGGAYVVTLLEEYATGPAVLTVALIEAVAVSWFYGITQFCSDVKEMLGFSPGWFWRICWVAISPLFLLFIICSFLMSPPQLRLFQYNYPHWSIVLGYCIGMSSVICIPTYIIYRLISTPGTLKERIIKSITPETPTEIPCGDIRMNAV
# human H3 receptor [1] = molecular target: T1, human H3 receptor (Homo sapiens, UniProt Q9Y5N1); experiment: H3 receptor binding (N-[3H]-α-methylhistamine displacement, SK-N-MC cell membranes); settings: 0.8 nM N-[3H]-α-methylhistamine, 60 min at 25° C.
# T1 construct: expressed in transfected cells
# Method: Binding of compounds to the cloned human H3 receptor, stably expressed in SK-N-MC cells, was performed (Lovenberg, T. W. et al. J. Pharmacol. Exp. Ther. 2000, 293, 771-778). Briefly, cell pellets from SK-N-MC cells expressing the human H3 receptor were homogenized in 50 mM Tris-HCl/5 mM EDTA and re-centrifuged at 30,000 g for 30 min. Pellets were re-homogenized in 50 mM Tris/5 mM EDTA (pH 7.4). Membranes were incubated with 0.8 nM N—[^3H]-α-methylhistamine plus/minus test compounds for 60 min at 25° C. and harvested by rapid filtration over GF/C glass fiber filters (pretreated with 0.3% polyethylenimine) followed by four washes with ice-cold buffer. Nonspecific binding was defined in the presence of 10 μM histamine.
# human SERT = molecular target: T2, human SERT (Homo sapiens, UniProt P31645); experiment: Human SERT binding (3H-citalopram displacement, HEK293 membranes); settings: 3H-citalopram 3.1 nM, rt for 1 h
# T2 construct: expressed in transfected cells; host or cells: HEK293
# Method: Homogenized HEK293 (Human Embryonic Kidney) membranes expressing the human SERT were incubated with ^3H-citalopram (SERT) at rt for 1 h in 50 mM Tris, 120 mM NaCl, 5 mM KCl (pH 7.4). Nonspecific binding was determined in the presence of 10 μM fluoxetine for the SERT. The membranes were washed and the radioactivity was counted as above. Calculations for Ki at the SERT were based on a Kd value for ^3H-citalopram and a ligand concentration of 3.1 nM.
# human H3 receptor [2] = molecular target: T1, human H3 receptor; experiment: Cyclic AMP accumulation (β-galactosidase reporter in SK-N-MC cells); type: cell-based; settings: Schild regression analysis of the pEC50 values, histamine agonist, forskolin 5 μM, read-out: pA2 (converted)
# Method: Sublines of SK-N-MC cells were created that expressed a reporter construct and the human H3 receptor. The reporter gene (β-galactosidase) is under the control of multiple cyclic AMP responsive elements. In 96-well plates, histamine was added directly to the cell media followed 5 min later by an addition of forskolin (5 μM final concentration). When appropriate, antagonists were added 10 min prior to agonist addition. After a 6-h incubation at 37° C., the media was aspirated and the cells washed with 200 μL of phosphate-buffered saline followed by a second aspiration. Cells were lysed with 25 μL 0.1× assay buffer (10 mM Na-phosphate, pH 8, 0.2 mM MgSO4, 0.01 mM MnCl2) and incubated at rt for 10 min. Cells were then incubated for 10 min with 100 μL of 1× assay buffer containing 0.5% Triton and 40 mM β-mercaptoethanol. Color was developed using 25 μL of 1 mg/mL substrate solution (chlorophenolred β-D galactopyranoside; Roche Molecular Biochemicals, Indianapolis, Ind.). Color was quantitated on a microplate reader at absorbance 570 nm. The pA2 values were calculated by Schild regression analysis of the pEC50 values.
# Rat SERT = molecular target: T3, Rat SERT (Rattus norvegicus, UniProt P31652); experiment: Rat brain SERT binding ([3H]-Citalopram displacement, rat brain membranes); settings: 0.6 nM [3H]-Citalopram, 60 min at 25° C.
# T3 construct: A rat brain without cerebellum (Zivic Laboratories, Inc.—Pittsburgh, Pa.) was homogenized; tissue Zivic Laboratories, Inc; host or cells: rat brain without cerebellum
# Method: A rat brain without cerebellum (Zivic Laboratories, Inc.—Pittsburgh, Pa.) was homogenized in a 52.6 mM Tris pH 8/126.4 mM NaCl/5.26 mM KCl mixture and centrifuged at 1,000 rpm for 5 min. The supernatant was removed and re-centrifuged at 15,000 rpm for 30 min. Pellets were re-homogenized in a 52.6 mM Tris pH8/126.4 mM NaCl/5.26 mM KCl mixture. Membranes were incubated with 0.6 nM [^3H]-Citalopram plus/minus test compounds for 60 min at 25° C. and harvested by rapid filtration over GF/C glass fiber filters (pretreated with 0.3% polyethylenimine) followed by four washes with ice-cold buffer. Nonspecific binding was defined in the presence of 100 μM fluoxetine.
SMILES,Ki (human H3 receptor [1]) [nM],Ki (human SERT) [nM],Kb (human H3 receptor [2]) [nM],Ki (Rat SERT) [nM]
"CN(C)CCC(Oc1ccc(Cl)c(Cl)c1)c1ccc(OCCCN2CCCCC2)cc1 (single isomer, unassigned; (+)) [Example 75, (+)-{3-(3,4-Dichloro-phenoxy)-3-[4-(3-piperidin-1-yl-propoxy)phenyl]-propyl}-dimethyl-amine]",4.3,7.3,7.08,
"CN(C)CCC(Oc1ccc(Cl)c(Cl)c1)c1ccc(OCCCN2CCCCC2)cc1 (single isomer, unassigned; (-)) [Example 74, (−){3-(3,4-Dichloro-phenoxy)-3-[4-(3-piperidin-1-yl-propoxy)phenyl]-propyl}-dimethyl-amine]",4,3,5.89,
"CC(C)N1CCN(C(=O)c2ccc(C(CCN(C)C)Oc3ccc(C(F)(F)F)cc3)cc2)CC1 (centres unmarked) [Example 39, {4-[3-Dimethylamino-1-(4-trifluoromethyl-phenoxy)-propyl]-phenyl}-(4-isopropyl-piperazin-1-yl)-methanone]",,42,,42
"CN(C)CCC(Oc1ccc(Cl)c(Cl)c1)c1ccc(OCCCN2CCCCC2)cc1 (centres unmarked) [Example 9, {3-(3,4-Dichloro-phenoxy)-3-[4-(3-piperidin-1-yl-propoxy)-phenyl]-propyl}-dimethyl-amine]",5,5,7.08,

# — US20080139564A1, “SUBSTITUTED PHENYL PROPYL AMINES AS HISTAMINE H3 RECEPTOR AND SEROTONIN TRANSPORTER MODULATORS” (priority 2006, published 2008)
